Test results taken from article PMC6273072, “Identification of a New Morpholine Scaffold as a P2Y12 Receptor Antagonist” (Molecules, 2016).

Chains of the proteins cited; added tags and fusions are not shown.
UniProt Q9H244, whole entry: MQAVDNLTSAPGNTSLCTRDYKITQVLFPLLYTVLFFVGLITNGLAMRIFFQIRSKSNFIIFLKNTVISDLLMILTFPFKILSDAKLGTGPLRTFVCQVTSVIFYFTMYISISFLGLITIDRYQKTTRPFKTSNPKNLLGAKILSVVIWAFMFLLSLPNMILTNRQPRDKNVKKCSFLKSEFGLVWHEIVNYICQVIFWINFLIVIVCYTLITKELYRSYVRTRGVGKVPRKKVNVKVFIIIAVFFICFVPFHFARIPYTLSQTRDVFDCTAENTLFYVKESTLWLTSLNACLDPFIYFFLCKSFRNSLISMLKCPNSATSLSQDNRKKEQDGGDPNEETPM

Target: rhP2Y12 receptor (Homo sapiens, UniProt Q9H244)
Assay: rhP2Y12 receptor binding assay with [3H]-2-MeSADP (HEK293T membranes)
Settings: read-out: Kd of radioligand at rhP2Y12 (saturation, Scatchard); [3H]-2-MeSADP saturation binding; tested as the radiolabelled form

## CSc1nc(N)c2ncn([C@@H]3O[C@H](COP(=O)(O)OP(=O)(O)O)[C@@H](O)[C@H]3O)c2n1 [Compound 2-MeSADP, reference compound]
  Kd: 3.74 nM
